This assay addresses trastuzumab. As to the kind of experiment: BLI. Background: In BLI a coated tip is dipped into the sample, and binding shifts an interference pattern.

B1: scFv40 (scFv, V domains shown)
VH: not shown
VL: SELTQDPAVSVALGQTVRITCQGDSLRSYYASWYQQKPGQAPVLVIYGKNNRPSGIPDRFSGSSSGNTASLTITGAQAEDEADYYCNSSDPDQLLVVFGGGTKLTVL
One may read the koff as a measure of how fast the partners let go of each other. Lower therefore signals a long-lived complex. Molecule B1 registered a koff of 0.044 s⁻¹.

B2: scFv69 (scFv, V domains shown)
VH: not shown
VL: SELTQDPAVSVALGQTVRITCQGDSLRSYYASWYQQKPGQAPVLVIYGKNNRPSGIPDRFSGSSSGNTASLTITGAQAEDEADYYCNSSEPTPPRVVFGGGTKLTVL
Molecule B2 came in with a dissociation rate constant (koff) of 0.00134 s⁻¹.
